One assay deals with human S1P1 (Homo sapiens (Human), UniProt P21453). Kind of assay: S1P1 Binding Assay (33P-S1P radioligand competition). As to conditions: membranes of CHO cells expressing human S1P1, 0.03 nM 33P-S1P; rounded to two digits. As to the method: Membranes were prepared from CHO cells expressing human S1P1. Cells were dissociated in buffer containing 20 mM HEPES, pH 7.5, 50 mM NaCl, 2 mM EDTA and Protease Inhibitor cocktail (Roche), and disrupted on ice using the Polytron homogenizer. The homogenate was centrifuged at 20,000 rpm (48,000 G) and the supernatant was discarded. The membrane pellets were resuspended in buffer containing 50 mM HEPES, pH 7.5, 100 mM NaCl, 1 mM MgCl2, 2 mM EDTA and stored in aliquots at −80° C. after protein concentration determination.
Membranes (2 μg/well) and 0.03 nM final concentration of 33P-S1P ligand (1 mCi/ml, American Radiolabeled Chemicals) were added to the compound plates. Binding was performed for 45 minutes at room temperature, terminated by collecting the membranes onto GF/B filter plates, and radioactivity was measured by TOPCOUNT®. The competition data of the test compounds over a range of concentrations was plotted as percentage inhibition of radioligand specific binding. The IC50 is defined as the concentration of competing ligand needed to reduce specific binding by 50%.
Table A below lists S1P1 Binding IC50 values from the following examples of this invention measured in the S1P1 binding assay described hereinabove. The results in Table A were rounded to two digits.

Chains of the proteins cited; added tags and fusions are not shown.
UniProt P21453, whole entry: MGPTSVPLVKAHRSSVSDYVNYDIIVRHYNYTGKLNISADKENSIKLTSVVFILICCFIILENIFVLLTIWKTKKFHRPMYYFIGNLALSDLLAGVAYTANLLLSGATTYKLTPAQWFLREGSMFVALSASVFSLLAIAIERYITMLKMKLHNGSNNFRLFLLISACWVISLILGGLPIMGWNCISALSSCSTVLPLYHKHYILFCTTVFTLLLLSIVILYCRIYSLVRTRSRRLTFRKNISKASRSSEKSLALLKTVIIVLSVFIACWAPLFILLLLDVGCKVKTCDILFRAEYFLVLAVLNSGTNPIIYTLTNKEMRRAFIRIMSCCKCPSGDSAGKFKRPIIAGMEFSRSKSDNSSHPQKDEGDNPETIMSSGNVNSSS

Assay [1] addresses S1P1 (membranes from S1P1/CHO cells) (Homo sapiens (Human), UniProt P21453). In words: Receptor [35S] GTPγS Binding Assay, S1P1. It is filed as biochemical. As to the method:
Receptor [35S] GTPγS Binding Assays
Compounds were loaded in a 384 FALCON® v-bottom plate (0.5 μl/well in a 3-fold dilution). Membranes prepared from S1P1/CHO cells or EDG3-Ga15-bla HEK293T cells were added to the compound plate (40 μl/well, final protein 3 μg/well) with MULTIDROP®. [^35S]GTP (1250 Ci/mmol, Perkin Elmer) was diluted in assay buffer: 20 mM HEPES, pH7.5, 10 mM MgCl2, 150 mM NaCl, 1 mM EGTA, 1 mM DTT, 10 μM GDP, 0.1% fatty acid free BSA, and 10 μg/ml Saponin to 0.4 nM. 40 μl of the [^35S] GTP solution was added to the compound plate with a final concentration of 0.2 nM. The reaction was kept at room temperature for 45 min. At the end of incubation, all the mixtures in the compound plate were transferred to a 384 well FB filter plates via GPCR robot system. The filter plate was washed with water 4 times by using the modified manifold Embla plate washer and dried at 60° C. for 45 min. 30 μl of MicroScint 20 scintillation fluid was added to each well for counting at Packard TOPCOUNT®. EC50 is defined as the agonist concentration that corresponds to 50% of the Ymax (maximal response) obtained for each individual compound tested.
A smaller value for GTPγS S1P1 EC50 value indicated greater activity for the compound in the GTPγS S1P1 binding assay. A larger value for the GTPγS S1P3 EC50 value indicated less activity in the GTPγS S1P3 binding assay.

In the case of `O=C(O)[C@H]1C[C@@H](N[C@H]2COc3cc(-c4noc(-c5onc(-c6ccccc6)c5C(F)(F)F)n4)ccc3[C@H]2O)C1` [Example 25, (1R,3S)-3-((3S,4R)-4-hydroxy-7-(5-(3-phenyl-4-(trifluoromethyl)isoxazol-5-yl)-1,2,4-oxadiazol-3-yl)chroman-3-ylamino)cyclobutanecarboxylic acid], the IC50 at human S1P1 was determined as 24 nM. Moreover, the EC50 in assay [1] was found to be 7.8 nM.
On the same counts, the results for `O=C(O)CCN[C@H]1COc2cc(-c3noc(-c4onc(-c5ccccc5)c4C(F)(F)F)n3)ccc2[C@@H]1O` (racemic) [Example 5, 3-((3R*,4R*)-4-hydroxy-7-(5-(3-phenyl-4-(trifluoromethyl)isoxazol-5-yl)-1,2,4-oxadiazol-3-yl)chroman-3-ylamino)propanoic acid] are 12 nM and 8.1 nM.
For `O=C(O)CCN[C@@H]1COc2cc(-c3noc(-c4onc(-c5ccccc5)c4C(F)(F)F)n3)ccc2[C@@H]1O` [Example 53, 3-((3R,4S)-4-Hydroxy-7-(5-(3-phenyl-4-(trifluoromethyl)isoxazol-5-yl)-1,2,4-oxadiazol-3-yl)chroman-3-ylamino)propanoic acid], the IC50 at human S1P1 came to 14 nM. This compound also displayed an EC50 in assay [1] of 6 nM.

The record behind these values is US8629282B2, “Heterocyclic compounds as S1P1 agonists for the treatment of autoimmune and vascular diseases” (Bristol-Myers Squibb Company, priority 2010, dated 2014).
